{"source": "ChEMBL document CHEMBL3588773", "about": "“Volume of Distribution in Drug Design” (J Med Chem, 2015)", "key": {"Rattus norvegicus [1]": {"species_on_record": "Rattus norvegicus", "assay": "Half life in bile duct cannulated rat", "conditions": "in vivo"}, "Rattus norvegicus [2]": {"species_on_record": "Rattus norvegicus", "assay": "Half life in intact rat", "conditions": "in vivo"}}}
{"smiles": "CO[C@]12CC[C@@]3(CC1[C@](C)(O)CCc1cccs1)[C@H]1Cc4ccc(O)c5c4[C@@]3(CCN1CC1CC1)[C@H]2O5", "note": "(some centres not stated)", "values": [{"measurement": "t1/2", "setting": "Rattus norvegicus [1]", "value": 3.5, "unit": "h"}, {"measurement": "t1/2", "setting": "Rattus norvegicus [2]", "value": 7, "unit": "h"}]}
